{
  "sequences": {"note": "Chains of the proteins cited; added tags and fusions are not shown.", "UniProt P23977, whole entry": "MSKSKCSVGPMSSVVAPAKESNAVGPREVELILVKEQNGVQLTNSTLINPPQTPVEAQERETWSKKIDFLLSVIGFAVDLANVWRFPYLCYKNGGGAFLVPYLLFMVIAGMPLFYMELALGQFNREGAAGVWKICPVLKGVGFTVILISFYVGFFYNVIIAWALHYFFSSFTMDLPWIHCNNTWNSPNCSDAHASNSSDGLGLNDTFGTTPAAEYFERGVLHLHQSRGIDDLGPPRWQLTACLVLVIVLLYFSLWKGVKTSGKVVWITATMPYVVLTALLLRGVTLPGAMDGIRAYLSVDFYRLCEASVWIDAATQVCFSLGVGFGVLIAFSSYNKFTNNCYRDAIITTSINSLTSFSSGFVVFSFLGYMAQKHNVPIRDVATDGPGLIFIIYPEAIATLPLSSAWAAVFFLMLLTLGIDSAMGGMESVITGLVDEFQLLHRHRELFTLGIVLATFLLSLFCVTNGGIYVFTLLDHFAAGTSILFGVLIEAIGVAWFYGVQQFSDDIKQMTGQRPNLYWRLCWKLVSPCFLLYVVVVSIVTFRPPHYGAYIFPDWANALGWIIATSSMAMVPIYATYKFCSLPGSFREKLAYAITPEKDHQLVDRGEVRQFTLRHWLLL"},
  "source": "ChEMBL document CHEMBL1126898",
  "about": "(J Med Chem, 1993)",
  "target": "Sodium-dependent dopamine transporter (Rattus norvegicus, UniProt P23977)",
  "test": "Inhibition of [3H]WIN-35428 binding to dopamine transporter in rat striatal membranes.",
  "type": "cell membranes, Membrane",
  "data": [
    {"smiles": "COC(=O)C1C2CCC(C[C@H]1c1ccc(OC)cc1)N2C", "note": "(stereo partly specified)", "values": [
      {"measurement": "IC50", "result": 8, "unit": "nM"}
    ]}
  ]
}
